This is a selection; strong and weak results do not stand in their true shares. Some salts and complexes are drawn in separate pieces, as the source files them; their charges need not balance. Active and inactive are the calls of the source.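 Rule for the calls: active = compounds whose cAMP rise, as percent of the full-agonist control response, exceeds 60; inactive = the rest.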

Sequences of proteins named here, by UniProt entry; tags and fusion partners are left off.
UniProt P43116, whole entry: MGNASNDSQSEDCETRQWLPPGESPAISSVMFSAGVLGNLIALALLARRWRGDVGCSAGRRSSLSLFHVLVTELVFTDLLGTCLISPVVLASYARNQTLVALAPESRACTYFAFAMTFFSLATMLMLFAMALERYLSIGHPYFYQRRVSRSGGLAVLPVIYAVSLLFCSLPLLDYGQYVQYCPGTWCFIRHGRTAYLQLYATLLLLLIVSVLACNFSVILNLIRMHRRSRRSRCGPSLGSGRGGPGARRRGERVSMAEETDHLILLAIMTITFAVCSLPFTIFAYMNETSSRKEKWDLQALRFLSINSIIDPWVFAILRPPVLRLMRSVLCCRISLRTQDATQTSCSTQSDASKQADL

The target of the assay is Prostaglandin E2 receptor EP2 subtype (Homo sapiens) (UniProt P43116). The experiment in a line: EP2 receptor modulators, cAMP readout, primary screen, cell-based, HTRF cAMP, PGE2 stimulation (AID 940).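 Note: rat C6 glioma line stably carrying human EP2 under a CMV promoter; the protocol text gives 20 µM as final concentration; 100% = response of wells given 1 µM PGE2.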 Particulars: EP2-expressing cells, cAMP HTRF FRET, PGE2 co-stimulation; at 25 µM; hits give high values. For orientation: In TR-FRET formats the signal depends on donor and acceptor labels being close together.
`Cc1ccc(C)c(NP(C)(=O)Oc2ccccc2)c1` (stereo unspecified): the induction is inactive: 7.42%. As to `CP(=O)(Nc1cccc(Br)c1)Oc1ccccc1` (stereo unspecified), the induction is inactive: -14.4%.

As for `Cc1cc(C)cc(OP(C)(=O)Nc2ccccn2)c1` (stereo unspecified), the induction was inactive: 2.75%. The figure for `O=[N+]([O-])c1cc([N+](=O)[O-])c(-n2nnc3ccccc32)c([N+](=O)[O-])c1` is active: 63.8%; for `Cc1nc2ccc3ccccc3c2s1.O=[N+]([O-])c1cc([N+](=O)[O-])c(O)c([N+](=O)[O-])c1` it is inactive: -6.42%; for `O=[N+]([O-])c1cc([N+](=O)[O-])c(Nc2nnnn2CCO)c([N+](=O)[O-])c1` it is inactive: 1.19%. The figure for `CCOC(=O)C(CC)C1=NC(C)(C)Cc2ccccc21.O=[N+]([O-])c1cc([N+](=O)[O-])c(O)c([N+](=O)[O-])c1` (stereo unspecified) is inactive: 10.2%; for `CP(=O)(Nc1ccc(SC(F)(F)F)cc1)Oc1ccccc1` (stereo unspecified) it is inactive: -32.2%.

For `CCCOc1ccc(NP(C)(=O)Oc2ccc(Cl)cc2)cc1` (stereo unspecified), the induction is inactive: -91.1%.

On to `COc1ccccc1OP(C)(=O)Nc1c(C)cccc1C` (stereo unspecified), for which the induction was inactive: 19.7%. The figure for `CN1CCCCC1COC(=O)C1(O)c2ccccc2CCc2ccccc21` (stereo unspecified) is inactive: -4.76%.

`CN(C)CCOC(=O)C(O)(c1ccccc1)C1CCCCC1` (stereo unspecified): the induction was inactive: 28.9%. The figure for `COc1ccc(NP(C)(=O)Oc2ccccc2OC)cc1` (stereo unspecified) is inactive: 19.9%; for `COc1ccc(OP(C)(=O)Nc2cccc(Br)c2)cc1` (stereo unspecified) it is inactive: -3.78%; for `O=[N+]([O-])c1ccc(OP2(=O)COCCO2)cc1` (stereo unspecified) it is inactive: -13%.

In the case of `O=[N+]([O-])c1cc([N+](=O)[O-])c(NCC2CCS(=O)(=O)C2)c([N+](=O)[O-])c1` (stereo unspecified), the induction was inactive: -11.3%. `Cc1cc(-c2cccc3ccccc23)c(C)cn1.O=[N+]([O-])c1cc([N+](=O)[O-])c(O)c([N+](=O)[O-])c1`: the induction was active: 85.5%. The figure for `CCOP(C)(=S)SCC(=O)NC(C)(CC)C(=O)O` (stereo unspecified) is inactive: 5.7%; for `CP(=O)(Nc1ccc(SC(F)(F)F)cc1)Oc1ccc(F)cc1` (stereo unspecified) it is inactive: -37.1%. In the case of `Cc1ccccc1NP(C)(=O)Nc1ccccc1C`, the induction is inactive: -2.44%. The figure for `NNC(NN)NN.n1nc(-c2nn[nH]n2)n[nH]1` is inactive: 3.44%. The figure for `CP(=O)(Nc1ccc2c(c1)OCCO2)Oc1ccccc1` (stereo unspecified) is inactive: -3.54%; for `CP(=O)(Nc1ccccc1F)Oc1ccccc1` (stereo unspecified) it is inactive: 19.6%; for `CC(C)c1ccc(OP(C)(=O)Nc2ccc(SC(F)(F)F)cc2)cc1` (stereo unspecified) it is inactive: -48%. The figure for `CN1CC[C@@H](OC(=O)[C@](O)(c2ccccc2)C2CCCC2)C1` is inactive: 31.7%; for `COc1ccc2c(c1O)-c1c(O)c(OC)cc3c1[C@H](C2)[N+](C)(C)CC3.O=[N+]([O-])c1cc([N+](=O)[O-])c([O-])c([N+](=O)[O-])c1[O-]` it is inactive: 19.9%. Turning to `O=C(OC1CN2CCC1CC2)c1ccc([N+](=O)[O-])cc1` (stereo unspecified), the induction was inactive: -2.19%. As for `O=C(OCCN1CCN(CCOCc2ccccc2)CC1)C(O)(c1ccccc1)c1ccccc1`, the figure is inactive: -0.86%.

In the case of `CCOC(=O)c1ccc(NP(C)(=O)Oc2ccc(F)cc2)cc1` (stereo unspecified), the induction was inactive: -56.9%. The figure for `COc1ccc(OP(C)(=O)Nc2ccc(SC(F)(F)F)cc2)cc1` (stereo unspecified) is inactive: -76%. As for `CP(=O)(Nc1ccccc1)Oc1ccc(F)cc1` (stereo unspecified), the figure is inactive: 16.8%; as for `CCCCCOc1ccc(NP(C)(=O)Oc2ccc(Cl)cc2Cl)cc1` (stereo unspecified), inactive: -12%. For the compound `CCN(CC)CCCOC(=O)C(O)(c1ccccc1)C1CCCCC1` (stereo unspecified), the induction is inactive: -1.37%. The figure for `COc1ccccc1OP(C)(=O)Nc1ccc(C)c(C)c1` (stereo unspecified) is inactive: 0.05%.

On to `COc1ccc(OP(C)(=O)Nc2ccccc2Br)cc1` (stereo unspecified), for which the induction is inactive: -14.2%. Consider `Cc1cc(C)cc(OP(C)(=O)Nc2cccc(C(F)(F)F)c2)c1` (stereo unspecified), for which the induction was inactive: 50.4%. As for `CP(=O)(OCCOc1ccccc1)OCCOc1ccccc1`, the figure is inactive: -21.7%. The figure for `CP(=O)(Nc1ccc(Cl)cc1Cl)Oc1ccccc1` (stereo unspecified) is inactive: -13.6%; for `[Au].[Au].c1ccc([PH+](c2ccccc2)c2ccccc2)cc1.c1ccc([PH+](c2ccccc2)c2ccccc2)cc1.n1n[n-]c(-c2nnn[n-]2)n1` it is inactive: -15.6%; for `Cc1nc2ccc3ccccc3c2o1.O=[N+]([O-])c1cc([N+](=O)[O-])c(O)c([N+](=O)[O-])c1` it is inactive: -19.8%. The figure for `COc1ccc(OP(C)(=O)Nc2ccccn2)cc1` (stereo unspecified) is inactive: 4.49%; for `CN(C)CCOC(=O)C(O)(c1ccccc1)C1CCCC1` (stereo unspecified) it is inactive: -14.9%; for `COc1ccccc1OP(C)(=O)Nc1ccc(Br)cc1` (stereo unspecified) it is inactive: -1.47%. On to `CP(=O)(Nc1ccccn1)Oc1ccccc1` (stereo unspecified), for which the induction is inactive: -15.8%. The figure for `COc1ccccc1OP(C)(=O)Nc1ccc(C)cc1C` (stereo unspecified) is inactive: 36.9%; for `CCc1ccc(OP(C)(=O)O)cc1` it is inactive: -4.23%; for `O=[N+]([O-])c1cc([N+](=O)[O-])c(Nc2ccccn2)c([N+](=O)[O-])c1` it is inactive: -8.35%.

For `Cc1c(NP(C)(=O)Oc2ccc(C(C)C)cc2)c(=O)n(-c2ccccc2)n1C` (stereo unspecified), the induction was inactive: 25.6%.

With `OCCSCCO`, the induction was inactive: -1.99%. As for `O=C(OCCCN1CCCC1)C(O)(c1ccccc1)C1CCCCC1` (stereo unspecified), the induction was inactive: -33.1%. For the compound `CP(=O)(Oc1ccccc1)N1CCOC1=O` (stereo unspecified), the induction is inactive: -21%. As for `CCc1ccc(OP(C)(=O)Nc2cccnc2)cc1` (stereo unspecified), the figure is inactive: 16.7%.

In the case of `CCN(CC)CC(O)COC(=O)C(O)(c1ccccc1)C1CCCCC1` (stereo unspecified), the induction was inactive: -6.39%. The figure for `COc1ccc(OP(C)(=O)Nc2ccc(Br)cc2)cc1` (stereo unspecified) is inactive: -50.3%; for `N#[O+].[C-]#N.[C-]#N.[C-]#N.[C-]#N.[C-]#N.[Fe+2].[Na+].[Na+]` it is inactive: 16.6%. As for `CN(C)C(=O)c1c([N+](=O)[O-])cc([N+](=O)[O-])cc1[N+](=O)[O-]`, the figure is inactive: -4.41%.

On to `CC(C)(C)c1ccc(OP(C)(=O)O)cc1`, for which the induction was inactive: 4.29%.

In the case of `COc1ccccc1OP(C)(=O)Nc1ccccc1Br` (stereo unspecified), the induction is inactive: 14.3%. As for `CP(=O)(Nc1ccc(Cl)cc1)Oc1ccc(F)cc1` (stereo unspecified), the figure is inactive: -3.91%; as for `CCOC(=O)c1ccc(NP(C)(=O)Oc2ccc(Cl)cc2)cc1` (stereo unspecified), inactive: -81.9%; as for `CP(=O)(OC12CC3CC(CC(C3)C1)C2)OC12CC3CC(CC(C3)C1)C2`, inactive: 20.3%.

The record behind these values is PubChem BioAssay AID940 (Emory University Molecular Libraries Screening Center, 2007).
